Test: Solid-state stability of the co-crystal under storage, thermal stress and humidity, checked by XRPD

Structure (SMILES): Cl.Cl.N#Cc1ccc2[nH]cc(CCCCN3CCN(c4ccc5oc(C(N)=O)cc5c4)CC3)c2c1.N#Cc1ccc2[nH]cc(CCCCN3CCN(c4ccc5oc(C(N)=O)cc5c4)CC3)c2c1.O=C(O)C(O)C(O)C(=O)O
- XRPD spectrum after storage (physical stability) (closed in a sealed vial, one month at room temperature): shows a XRPD spectrum as substantially shown in FIG. 1
- Overall chemical and physical stability of the solid (summary of the stability tests): stable solid both from a chemical and physical point of view
